Assay [1] addresses ryanodine receptor 1 (RyR1) in porcine skeletal SR membranes (pig (endogenous in porcine skeletal muscle SR)) (UniProt P16960). The experiment in a line: FRET or BRET; fluorescence-lifetime FRET from D-FKBP preloaded on skeletal SR (0.5 mg/ml; unbound D-FKBP removed by centrifugation) to A-CaM (150 nM in results, 150 μM in methods); 30 nM free Ca2+, 5 mM GSSG, 20 mM PIPES, 150 mM KCl, 0.1 mg/ml BSA; 1536-well plates, read 60 min after loading; DMSO or 20 μM suramin controls.

Assay [2] addresses ryanodine receptor 2 (RyR2) in porcine cardiac SR membranes (pig (endogenous in porcine left ventricle SR)). The experiment in a line: FRET or BRET; fluorescence-lifetime FRET from D-FKBP preloaded on H2O2-treated (100 μM) cardiac SR (2 mg/ml; unbound D-FKBP removed by centrifugation) to 100 nM A-CaM; 30 nM free Ca2+, 20 mM PIPES, 150 mM KCl, 0.1 mg/ml BSA; 1536-well plates, read 60 min after loading; DMSO or 20 μM suramin …. On the technique in general: BRET reads energy transfer from a luciferase to a nearby fluorophore.

With “AF568-CaM (calmodulin T34C labelled with AF568) (from UniProt P0DP23 1-149) (natural protein)”, the values for the increase in donor fluorescence lifetime (Δτ) with 20 μM suramin against DMSO control in assay [1] and in assay [2] were 922 ps and 339 ps, respectively.

Values taken from publication PMC12765055.
